Measured values as given in PubChem BioAssay AID1325 (NMMLSC, 2008).
The list shows a part of the results, in another mix than the full data. Active and inactive are the calls of the source.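 The calls were made as follows: active = inhibition above 80%; inactive = the rest.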

Protein sequences, listed by entry. Tags and fused reporters are not part of them.
UniProt Q9UNQ0, whole entry: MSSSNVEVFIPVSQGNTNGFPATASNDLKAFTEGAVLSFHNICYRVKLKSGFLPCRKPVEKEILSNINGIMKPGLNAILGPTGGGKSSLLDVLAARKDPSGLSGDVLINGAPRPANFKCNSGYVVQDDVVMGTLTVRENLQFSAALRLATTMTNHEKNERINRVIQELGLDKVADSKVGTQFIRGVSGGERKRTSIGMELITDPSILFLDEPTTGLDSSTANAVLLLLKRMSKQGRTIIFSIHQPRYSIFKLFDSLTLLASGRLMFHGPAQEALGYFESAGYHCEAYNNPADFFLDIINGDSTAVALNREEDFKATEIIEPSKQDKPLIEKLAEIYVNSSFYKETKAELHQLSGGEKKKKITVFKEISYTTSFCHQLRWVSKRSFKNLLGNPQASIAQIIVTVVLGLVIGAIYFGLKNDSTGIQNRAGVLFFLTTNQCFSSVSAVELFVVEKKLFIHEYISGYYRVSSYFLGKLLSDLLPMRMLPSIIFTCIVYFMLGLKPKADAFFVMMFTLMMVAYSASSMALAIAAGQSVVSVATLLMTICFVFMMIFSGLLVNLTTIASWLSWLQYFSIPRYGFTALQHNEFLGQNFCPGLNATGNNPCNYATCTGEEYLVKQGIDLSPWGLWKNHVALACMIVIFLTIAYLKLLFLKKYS

target: Broad substrate specificity ATP-binding cassette transporter ABCG2 (Homo sapiens) (UniProt Q9UNQ0); assay: ABCG2 efflux pump inhibitors, primary screen, multiplex with ABCB1, IgMXP3 cells, flow cytometry (AID 1325); conditions: JC-1 efflux, at 6.6 µM, active compounds read high;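 also: 0% = DMSO and 100% = nicardipine control wells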

SMILES | inhibition
COc1ccc(OP(C)(=O)Nc2ccccn2)cc1 (stereo not drawn) | inactive: 0.02%
CN(C)CCOC(=O)C(O)(c1ccccc1)C1CCCC1 (stereo not drawn) | inactive: -0.47%
COc1ccccc1OP(C)(=O)Nc1ccc(C)cc1C (stereo not drawn) | inactive: 3.27%
CP(=O)(Nc1ccccn1)Oc1ccccc1 (stereo not drawn) | inactive: 10.3%
CCc1ccc(OP(C)(=O)O)cc1 | inactive: -0.27%
O=[N+]([O-])c1cc([N+](=O)[O-])c(Nc2ccccn2)c([N+](=O)[O-])c1 | inactive: 0.66%
Cc1c(NP(C)(=O)Oc2ccc(C(C)C)cc2)c(=O)n(-c2ccccc2)n1C (stereo not drawn) | inactive: 0.85%
COc1ccccc1OP(C)(=O)Nc1ccc(C)c(C)c1 (stereo not drawn) | inactive: 0.63%
COc1ccc(OP(C)(=O)Nc2ccccc2Br)cc1 (stereo not drawn) | inactive: 3.53%
Cc1cc(C)cc(OP(C)(=O)Nc2cccc(C(F)(F)F)c2)c1 (stereo not drawn) | inactive: 23.3%
CP(=O)(OCCOc1ccccc1)OCCOc1ccccc1 | inactive: 5.57%
CP(=O)(Nc1ccc(Cl)cc1Cl)Oc1ccccc1 (stereo not drawn) | inactive: 8.09%
Cc1nc2ccc3ccccc3c2o1.O=[N+]([O-])c1cc([N+](=O)[O-])c(O)c([N+](=O)[O-])c1 | inactive: 2.06%
CCOC(=O)c1ccc(NP(C)(=O)Oc2ccc(Cl)cc2)cc1 (stereo not drawn) | inactive: 26.9%
CP(=O)(OC12CC3CC(CC(C3)C1)C2)OC12CC3CC(CC(C3)C1)C2 | inactive: 1.32%
CCc1ccc(OP(C)(=O)Nc2cccnc2)cc1 (stereo not drawn) | inactive: -0.27%
CP(=O)(Oc1ccccc1)N1CCOC1=O (stereo not drawn) | inactive: 0.07%
COc1ccc(OP(C)(=O)Nc2ccc(Br)cc2)cc1 (stereo not drawn) | inactive: 12.1%
CCN(CC)CC(O)COC(=O)C(O)(c1ccccc1)C1CCCCC1 (stereo not drawn) | inactive: 1.73%
CN(C)C(=O)c1c([N+](=O)[O-])cc([N+](=O)[O-])cc1[N+](=O)[O-] | inactive: 1.03%
CC(C)(C)c1ccc(OP(C)(=O)O)cc1 | inactive: 0.8%
COc1ccccc1OP(C)(=O)Nc1ccccc1Br (stereo not drawn) | inactive: 0.97%
CP(=O)(Nc1ccc(Cl)cc1)Oc1ccc(F)cc1 (stereo not drawn) | inactive: 2.57%

SMILES | inhibition
CCOP(C)(=S)SCC(=O)NC(C)(CC)C(=O)O (stereo not drawn) | inactive: -1.93%
Cc1ccccc1NP(C)(=O)Nc1ccccc1C | inactive: 0.41%
CP(=O)(Nc1ccc2c(c1)OCCO2)Oc1ccccc1 (stereo not drawn) | inactive: 9.19%
CN(C)CCOC(=O)C(O)(c1ccccc1)C1CCCCC1 (stereo not drawn) | inactive: 2.55%
COc1ccc(NP(C)(=O)Oc2ccccc2OC)cc1 (stereo not drawn) | inactive: -0.15%
COc1ccc(OP(C)(=O)Nc2cccc(Br)c2)cc1 (stereo not drawn) | inactive: 14%
O=[N+]([O-])c1cc([N+](=O)[O-])c(NCC2CCS(=O)(=O)C2)c([N+](=O)[O-])c1 (stereo not drawn) | inactive: 3.94%
CCOC(=O)c1ccc(NP(C)(=O)Oc2ccc(F)cc2)cc1 (stereo not drawn) | inactive: 1.41%
COc1ccc(OP(C)(=O)Nc2ccc(SC(F)(F)F)cc2)cc1 (stereo not drawn) | inactive: 2.55%
CP(=O)(Nc1ccccc1)Oc1ccc(F)cc1 (stereo not drawn) | inactive: 1.33%
CCN(CC)CCCOC(=O)C(O)(c1ccccc1)C1CCCCC1 (stereo not drawn) | inactive: 0.92%
CP(=O)(Nc1ccccc1F)Oc1ccccc1 (stereo not drawn) | inactive: 4.04%
CC(C)c1ccc(OP(C)(=O)Nc2ccc(SC(F)(F)F)cc2)cc1 (stereo not drawn) | inactive: 0.57%
O=C(OCCN1CCN(CCOCc2ccccc2)CC1)C(O)(c1ccccc1)c1ccccc1 | inactive: 1.61%
CCOC(=O)c1ccc(NP(C)(=O)Oc2cc(C)cc(C)c2)cc1 (stereo not drawn) | inactive: 11.8%
Cc1cc(C)cc(OP(C)(=O)Nc2ccc(C)cc2C)c1 (stereo not drawn) | inactive: 0.71%
Cc1ccc(C)c(NP(C)(=O)Oc2ccccc2)c1 (stereo not drawn) | inactive: -0.42%
CP(=O)(Nc1cccc(Br)c1)Oc1ccccc1 (stereo not drawn) | inactive: 10.8%
Cc1cc(C)cc(OP(C)(=O)Nc2ccccn2)c1 (stereo not drawn) | inactive: 31.5%
CC1=NCCc2c1[nH]c1ccccc21.O=[N+]([O-])c1cc([N+](=O)[O-])c(O)c([N+](=O)[O-])c1 | inactive: 9.56%
CP(=O)(Nc1ccc(SC(F)(F)F)cc1)Oc1ccccc1 (stereo not drawn) | inactive: -1.93%
CCCOc1ccc(NP(C)(=O)Oc2ccc(Cl)cc2)cc1 (stereo not drawn) | inactive: -0.11%
CN1CCCCC1COC(=O)C1(O)c2ccccc2CCc2ccccc21 (stereo not drawn) | inactive: -0.54%

SMILES | inhibition
COc1ccccc1OP(C)(=O)Nc1c(C)cccc1C (stereo not drawn) | inactive: 0.87%
O=[N+]([O-])c1cc([N+](=O)[O-])c(-n2nnc3ccccc32)c([N+](=O)[O-])c1 | inactive: 0%
Cc1nc2ccc3ccccc3c2s1.O=[N+]([O-])c1cc([N+](=O)[O-])c(O)c([N+](=O)[O-])c1 | inactive: 14%
Cc1cc(C)cc(OP(C)(=O)Nc2ccc(SC(F)(F)F)cc2)c1 (stereo not drawn) | inactive: 12.2%
CP(=O)(NC(=O)Nc1ccccc1)Oc1ccccc1 (stereo not drawn) | inactive: 0.66%
CP(=O)(Oc1ccccc1)OC(c1ccccc1)C(F)(F)F (stereo not drawn) | inactive: 3.56%
Cc1cccc(C)c1OP(C)(=O)Nc1ccc(SC(F)(F)F)cc1 (stereo not drawn) | inactive: -0.34%
CP(=O)(Nc1ccccn1)Oc1ccc(Cl)cc1 (stereo not drawn) | inactive: 1.83%
CCOC(=O)c1ccc(NP(C)(=O)Oc2ccc(OC)cc2)cc1 (stereo not drawn) | inactive: 8.02%
CCOP(C)(=S)SCC(=O)NC(C)C(=O)O (stereo not drawn) | inactive: 0.3%
COc1ccccc1OP(C)(=O)Nc1ccccc1 (stereo not drawn) | inactive: 1.41%
CP(=S)(Nn1cnnc1)Oc1ccccc1 (stereo not drawn) | inactive: 2.21%
O=[N+]([O-])c1ccc2c(c1)C=Nc1ccccc1O2 | inactive: 2.05%
Cc1cccc(C)c1OP(C)(N)=O (stereo not drawn) | inactive: 0.44%
CC(C)(C)c1ccc(OP(C)(=O)Nc2ccc(SC(F)(F)F)cc2)cc1 (stereo not drawn) | inactive: 3.02%
Cc1cc(C)cc(OP(C)(N)=O)c1 (stereo not drawn) | inactive: 12.5%
COc1ccc(OP(C)(=O)Nc2cccc(F)c2)cc1 (stereo not drawn) | inactive: 2.78%
COc1ccccc1OP(C)(=O)Nc1cc(Cl)ccc1C (stereo not drawn) | inactive: 2.18%
Cc1ccc(NP(C)(=O)Oc2ccccc2)c(C)c1 (stereo not drawn) | inactive: 4.49%
COc1ccccc1OP(C)(=O)Nc1ccc(C)cc1 (stereo not drawn) | inactive: -3.45%
CCOC(=O)c1ccc(NP(C)(=O)Oc2ccccc2)cc1 (stereo not drawn) | inactive: 6.49%
CCN(CC)CCCOC(=O)C(O)(c1ccccc1)c1ccccc1 | inactive: 3.13%
